A short description of this series: Study 1506: Acute eye irritation/corrosion test in rabbits. To be noted: rabbit, in vivo. From the text:
Study 1506: Acute Eye Irritation/corrosion Test in Rabbits

For the substance Potassium oxihumate, the iris lesion entry is recorded as “non-irritant”.

These data come from patent publication US6630179B1, “Oxihumic acid and its use in the treatment of various conditions” (priority 1998, dated 2003).
